# Assay results from patent US20060223786A1.
# Some compounds may have been tested in ways that are not shown here.
# Assay: In vitro flux through human cadaver epidermis, Franz cell diffusion method
# Conditions: 1% solution in ethanol in direct contact with human cadaver epidermis, 32° C., receiving buffer PBS pH=7.4, FIG. 1
structure (smiles),measurement,value
CCC(=O)N(c1ccccc1)C1CCN(CCc2ccccc2)CC1,in vitro flux through human cadaver epidermis,higher than the flux of fentanyl citrate
